The numbers were not newly measured in paper PMC3506555, “[^11C]phenytoin revisited: synthesis by [^11C]CO carbonylation and first evaluation as a P-gp tracer in rats” (EJNMMI Research, 2012), which cites them from elsewhere.

This series relates to P-glycoprotein (P-gp). Particulars: brain, man; ref not given; cited from earlier work.

As to (R)-^11C]verapamil, the “Distribution volume at baseline” value is reported as “around 1”.
